Among the data in PubChem BioAssay AID639 (Emory University Molecular Libraries Screening Center, 2007) are coactivator binding (% of control) values, retold here.

Amino acid sequences for entries named in this document (tags omitted).
UniProt P03372, whole entry: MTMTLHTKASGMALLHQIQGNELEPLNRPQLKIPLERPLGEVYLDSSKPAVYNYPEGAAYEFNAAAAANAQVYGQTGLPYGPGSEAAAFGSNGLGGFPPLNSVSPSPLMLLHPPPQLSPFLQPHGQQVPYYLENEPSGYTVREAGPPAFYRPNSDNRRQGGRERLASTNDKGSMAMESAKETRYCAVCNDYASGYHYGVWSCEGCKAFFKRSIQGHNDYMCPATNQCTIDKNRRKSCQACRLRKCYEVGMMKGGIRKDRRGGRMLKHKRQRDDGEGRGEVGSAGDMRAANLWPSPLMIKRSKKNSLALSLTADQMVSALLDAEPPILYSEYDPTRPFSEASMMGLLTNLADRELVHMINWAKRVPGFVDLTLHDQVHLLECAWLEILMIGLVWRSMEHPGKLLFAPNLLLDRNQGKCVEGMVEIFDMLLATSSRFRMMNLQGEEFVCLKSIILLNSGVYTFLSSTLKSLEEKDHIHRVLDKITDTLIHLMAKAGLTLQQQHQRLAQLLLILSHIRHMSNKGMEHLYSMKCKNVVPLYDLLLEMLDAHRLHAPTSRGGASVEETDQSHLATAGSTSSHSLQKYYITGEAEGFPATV

The entries are a selection whose mix differs from that of the whole data set. Some results for these compounds are left out of this collection, so the calls shown say nothing about other tests. Calls of active or inactive are those of the source. Cut-off read from the data, not from the text of the source: active = activity above about 200%; inactive = the rest.

In this test the target is Estrogen receptor (Homo sapiens) (UniProt P03372). Description: ERα coactivator recruitment potentiators – biochemical, TR-FRET, ERα LBD, low estradiol, primary screen (AID 639).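 Note: binding measured in presence of low estradiol as agonist stimulus; 0% = peptide alone without receptor and 100% = receptor with peptide.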 The following applies: TR-FRET ERalpha-LBD/SRC-Cy5 coactivator binding, 2 h; at 25.6 µM; hits give high values; 100 = basal binding, no effect. (In general: Time-resolved FRET reads energy transfer from a long-lived donor to a nearby acceptor.)
As for `CN(C)c1cccc(C(=O)NCC2(N(C)C)CCCCC2)c1`, the coactivator binding (% of control) is inactive: 107%.

In the case of `O=C(OC1CN2CCC1CC2)C(CO)(c1ccccc1)c1ccccc1` (configuration not stated), the coactivator binding (% of control) is inactive: 121%.
